Test system: GBM8 cells
Conditions: EGFR inhibitor combined with 1-(3,4-dichlorophenyl)-3-(4-(3-(dimethylamino)propylamino)-6-methylpyrimidin-2-yl)urea, EGFR inhibitor added ~24 h after olig2 inhibitor, viability 72 hours later, CI<1 indicates synergy

SMILES	GBM8 CI (combination index)
C=CC(=O)Nc1cccc(Nc2nc(Nc3ccc(N4CCN(C(C)=O)CC4)cc3OC)ncc2C(F)(F)F)c1 [Rocilitinib]	0.70
COc1cc2c(Nc3ccc(Cl)c(Cl)c3F)ncnc2cc1OC[C@@H]1C[C@@H]2CN(C)C[C@@H]2C1 [XL-647]	0.75

From patent US20230321094A1, “COMBINATION THERAPIES WITH OLIG2 INHIBITORS” (Curtana Pharmaceuticals, Inc., priority 2020, published 2023)
